According to patent US6747049B2, “Oxazole derivatives” (Hoffmann-La Roche Inc., priority 2002, dated 2004):

Target: T1, PPARα (Homo sapiens, UniProt Q07869)
T1 construct: expressed in transfected cells; host or cells: BHK21 (ATCC CCL10)
T1 sequence (Q07869 167-468 limits assumed): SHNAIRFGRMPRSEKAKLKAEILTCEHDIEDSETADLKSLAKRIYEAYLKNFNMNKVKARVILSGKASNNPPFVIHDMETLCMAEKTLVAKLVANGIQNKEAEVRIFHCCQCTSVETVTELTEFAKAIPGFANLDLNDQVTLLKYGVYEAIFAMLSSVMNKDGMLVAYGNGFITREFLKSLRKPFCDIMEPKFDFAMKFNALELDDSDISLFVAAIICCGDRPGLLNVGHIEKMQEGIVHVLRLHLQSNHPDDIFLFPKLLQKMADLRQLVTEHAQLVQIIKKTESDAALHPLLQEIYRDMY
Assay: Luciferase transcriptional reporter gene assay, pFA-PPARα-LBD in BHK21 cells
Assay type: cell-based
Settings: Gal4-PPARα-LBD luciferase reporter, 24 hours incubation
Description: Full-length cDNA clones for human PPARα and mouse PPARγ were obtained by RT-PCR from human adipose and mouse liver cRNA, respectively, cloned into plasmid vectors and verified by DNA sequencing. […] To accomplish this, the portions of the cloned sequences encoding the LBDs were amplified from the full-length clones by PCR and then subcloned into the plasmid vectors. Final clones were verified by DNA sequence analysis.
Luciferase Transcriptional Reporter Gene Assays
Baby hamster kidney cells (BHK21 ATCC CCL10) were grown in DMEM medium containing 10% FBS at 37° C. in a 95%O2:5%CO2 atmosphere. […] Following incubation of the cells for 24 hours with substances, 50 ul of the supernatant was recovered and analyzed for SEAP activity (Roche Molecular Biochemicals). […] Luminescence for both SEAP and luciferase was measured in a Packard TopCount. Luciferase activity was normalized to the SEAP control and transcriptional activation in the presence of a test substance was expressed as fold-activation over cells incubated in the absence of the substance. EC50 values were calculated using the XLfit program (ID Business Solutions Ltd. UK).

CN(CCOc1ccc(CC2SC(=O)NC2=O)cc1)c1ccccn1 (stereo not shown) [Rosiglitazone, rosiglitazone, reference compound]
PPARα EC50: inactive
